Test results reported in patent publication US20240124398A1, “PHARMACEUTICALLY ACCEPTABLE SALTS OF PSILOCIN AND USES THEREOF” (priority 2021, published 2024).

Test: Solubility of psilocin salts in saline
Settings: for Solubility: single replicates; for Solubility (in words): comparison among forms or with freeform
[1] = Table 9, 25° C., 5 hours, maximum anticipated concentration 10 mg/mL free base
[2] = Table 10 (updated), hydrochloride

Molecule | Average Solubility [1] | Average Solubility (Table 10 (updated)) | Solubility [1] | Solubility (Table 10 (updated)) | further results
CN(C)CCc1c[nH]c2cccc(O)c12.O=C(O)c1ccccc1 [BEN Pattern 1, Psilocin benzoate] | 5000 µg/mL | 5000 µg/mL |  |  | Solubility (Table 9, 25° C., 5 hours, maximum anticipated concentration 10 mg/mL free base, listed as Psilocin benzoate BEN Pattern 1): 5000 µg/mL and 4900 µg/mL; Solubility (Table 10 (updated), listed as Psilocin benzoate BEN Pattern 1): 5000 µg/mL and 4900 µg/mL
CN(C)CCc1c[nH]c2cccc(O)c12.O=S(=O)(O)c1cccc2c(S(=O)(=O)O)cccc12 [Psilocin 1,5-napthalenedisulfonate NAP Pattern 1] | 7100 µg/mL | 7100 µg/mL | 7000 µg/mL and 7100 µg/mL | 7000 µg/mL and 7100 µg/mL | 
CN(C)CCc1c[nH]c2cccc(O)c12 [Psilocin free base, Psilocin] |  | 760 µg/mL | 740 µg/mL | 780 µg/mL and 740 µg/mL | 
CN(C)CCc1c[nH]c2cccc(O)c12 [Psilocin hydrochloride HCl Pattern 1, Psilocin hydrochloride] |  |  |  |  | Average Solubility [2]: Approx. 36 mg/mL; Solubility [2]: 36000 µg/mL
CN(C)CCc1c[nH]c2cccc(O)c12.O=C(O)c1ccccc1O [Psilocin salicylate SAL Pattern 1, Psilocin salicylate] | 5800 µg/mL | 5800 µg/mL | 5500 µg/mL and 6000 µg/mL | 5500 µg/mL and 6000 µg/mL | 
Psilocin succinate [SUC Pattern 3] |  | >27000 µg/mL |  |  | Solubility (Table 10 (updated), listed as Psilocin succinate SUC Pattern 3): >28000 µg/mL and >25000 µg/mL; Solubility (in words): high solubility
Psilocin tartrate [TAR Pattern 1] |  |  |  |  | Solubility (in words): high solubility

Several values for one entry are separate records, joined by “and”; a condition that tells them apart may be missing. Equal values may be shown once. Where a name gives a salt, the structure may show the parent alone.
